Consider 42 compounds from PubChem BioAssay AID1214 (Sanford-Burnham Center for Chemical Genomics, 2008).

The chains behind the UniProt entries cited, without tags or fusion partners. Where a name states a change or a piece, a line headed by the entry shows the natural chain unless it says otherwise.
UniProt P34949: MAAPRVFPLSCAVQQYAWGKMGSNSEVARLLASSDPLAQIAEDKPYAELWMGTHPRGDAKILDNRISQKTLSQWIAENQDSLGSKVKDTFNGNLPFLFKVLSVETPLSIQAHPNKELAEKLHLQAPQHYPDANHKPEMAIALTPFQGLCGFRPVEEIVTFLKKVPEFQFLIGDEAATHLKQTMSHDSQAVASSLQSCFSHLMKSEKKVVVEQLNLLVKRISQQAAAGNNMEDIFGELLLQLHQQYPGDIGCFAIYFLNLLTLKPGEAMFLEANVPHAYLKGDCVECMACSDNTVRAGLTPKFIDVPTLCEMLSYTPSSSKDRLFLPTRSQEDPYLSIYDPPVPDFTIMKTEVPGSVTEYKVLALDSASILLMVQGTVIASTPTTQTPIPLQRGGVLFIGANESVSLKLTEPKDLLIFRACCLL

The structures appear in SMILES notation. The list shows a part of the results. Active and inactive are the calls of the source.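 The calls were made as follows: active = activation factor of 2 or more at 20 µM, relative to plate controls; inactive = the rest.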

In this test the target is Mannose-6-phosphate isomerase (Homo sapiens) (UniProt P34949). Kind of test: activators of human PMI, primary screen, biochemical, fluorescence intensity, near-Km mannose 6-phosphate (AID 1214). The following applies: purified human PMI, coupled resazurin fluorescence, 20 min; at 20 µM; hits give high values; 1 = vehicle control, 0 substrate-free wells. (Resazurin is reduced to fluorescent resorufin, in cell work by metabolically active cells.)
For `O=[N+]([O-])c1ncn(CCn2ncnc2[N+](=O)[O-])n1`, the activation factor was inactive: 1.1.
The same measure for `CC(C)=N/N=C(\N)N[N+](=O)[O-]`: inactive: 1.1.
As to `COc1ccc(C2=NCC(CBr)S2)cc1` (configuration not stated), the activation factor was inactive: 0.9.
For `O=[N+]([O-])c1cccc2n[nH]nc12` the value was inactive: 1.1.
For `CCc1nc2c(n1)c1c(non1O)c1c2no[n+]1[O-]` the value was inactive: 0.4; for `O=[N+]([O-])c1cc([N+](=O)[O-])c(CCNc2ccccc2)c([N+](=O)[O-])c1`, inactive: 1.2.
The same measure for `CC(C)CC(=O)NC(Sc1ccc(Cl)cc1)C(Cl)(Cl)Cl` (configuration not stated): inactive: 1.1; for `Cc1c2non([O-])c-2c(C)[n+](=O)[n+]1[O-]`: inactive: 0.6.
For `NC(=O)c1cc([N+](=O)[O-])cc([N+](=O)[O-])c1N`, the activation factor was inactive: 1.1.
The same measure for `Clc1ccc(Cl)c(NC2=NCC(CBr)S2)c1` (configuration not stated): inactive: 1.3; for `CN1CCCC(OC(=O)C(c2ccccc2)c2ccccc2)C1` (configuration not stated): inactive: 1.1.
The same measure for `CCN(N=Nc1nonc1N)c1nonc1N`: inactive: 0.8; for `Cc1cc(SC(NC(=O)c2ccc(F)cc2)C(Cl)(Cl)Cl)ncn1` (configuration not stated): inactive: 1.1.
The same measure for `CC(=O)NC(SC(=S)N(CC(C)C)CC(C)C)C(Cl)(Cl)Cl` (configuration not stated): inactive: 1.1; for `Cc1ccc(OP(=O)(Nc2ccccn2)Oc2ccc(C)cc2)cc1`: inactive: 0.9; for `CCC(=O)N1C2C3N(C(=O)CC)C1C1N(C(=O)CC)C(C(N1C(=O)CC)N3C(=O)CC)N2C(=O)CC`: inactive: 1.1.
With `O=C(NC1CCS(=O)(=O)C1)NP(=S)(Oc1ccccc1)Oc1ccccc1` (configuration not stated), the activation factor is inactive: 0.8.
Regarding `c1ccc(-c2nn[nH]n2)c(-c2nn[nH]n2)c1`, the activation factor was inactive: 1.2.
For `CC(=O)Nc1ccc(Oc2c([N+](=O)[O-])cc([N+](=O)[O-])cc2[N+](=O)[O-])cc1` the value was inactive: 1.2; for `O=P1(Nc2nc3ccc(Cl)cc3s2)COc2ccccc2O1` (configuration not stated), inactive: 0.8.
Turning to `c1nnnn1CCn1cnnn1`, the activation factor was inactive: 0.9.
`C(Cc1nn[nH]n1)Cc1nn[nH]n1`: the activation factor was inactive: 0.7.
Regarding `O=C(OC1CN2CCC1CC2)c1cccc(Cl)c1` (configuration not stated), the activation factor is inactive: 0.9.
For `O=P1(Nc2ncccn2)COc2ccccc2OC1` the value was inactive: 1.1.
The same measure for `Cc1ccc(OCC(=O)OC2CN3CCC2CC3)cc1` (configuration not stated): inactive: 0.9; for `Cc1nn(-c2ccccc2)c2c1P(=O)(N1CCOCC1)N(C)C(c1ccccc1)=N2` (configuration not stated): inactive: 0.9.
Regarding `CC1CCC(C(C)C)C(OP(=O)(Nc2ccccn2)c2ccccc2)C1` (configuration not stated), the activation factor was inactive: 1.1.
The same measure for `CN(C)C1(CNC(=O)c2ccc(S(C)(=O)=O)cc2)CCCCC1`: inactive: 0.9.
With `CC(C)/C=N\N=C(\N)N[N+](=O)[O-]`, the activation factor was inactive: 1.2.
`O=P1(Nc2ccccn2)COc2ccccc2OC1`: the activation factor was inactive: 0.9.
Regarding `Clc1n[nH]nc1-c1nn[nH][15n]1`, the activation factor is inactive: 0.9.
For `CCOP(=O)(Nc1cccc2ccccc12)OCC` the value was inactive: 0.9; for `CCOP1(=S)c2c(C)nn(CCC#N)c2N=C(c2ccccc2F)N1C` (configuration not stated), inactive: 0.9; for `O=P(Nc1nccs1)(c1ccccc1)c1nc2ccccc2s1` (configuration not stated), inactive: -0.1.
The same measure for `ClCCSc1nnc(-c2cccnc2)o1`: inactive: 0.9; for `CC(C)NC(=O)NP(=O)(Oc1ccccc1)Oc1ccccc1`: inactive: 0.9.
For `O=[N+]([O-])c1cc([N+](=O)[O-])c(-c2ccn[nH]2)s1` the value was inactive: 0.9; for `O=C(OC1CN2CCC1CC2)C12CC3CC(CC(C3)C1)C2` (configuration not stated), inactive: 1.1.
As for `Cc1c2c(nc3ccccc13)SC(C(Cl)Cl)C2` (configuration not stated), the activation factor is inactive: 0.9.
With `CCC(C)N(CC(C)C)C(=S)SC(NC(C)=O)C(Cl)(Cl)Cl` (configuration not stated), the activation factor is inactive: 1.2.
For `O=P(Nc1ccccn1)(c1cccc2ccccc12)c1cccc2ccccc12` the value was inactive: 0.9; for `Cc1cc(SC(NC=O)C(Cl)(Cl)Cl)ncn1` (configuration not stated), inactive: 1.2.
